Biological target: PI 3-kinase beta (Homo sapiens, UniProt P42338)
Assay: Kinase Glo Luminescent Kinase Assay (Kglo), assay B
Format: biochemical
Conditions: read-out: Assay B PI3Kβ IC50

Protein sequences, listed by entry. Tags and fused reporters are not part of them. Lines headed by an entry give the natural chain unless they say otherwise; changes in a name come on top.
UniProt P42338: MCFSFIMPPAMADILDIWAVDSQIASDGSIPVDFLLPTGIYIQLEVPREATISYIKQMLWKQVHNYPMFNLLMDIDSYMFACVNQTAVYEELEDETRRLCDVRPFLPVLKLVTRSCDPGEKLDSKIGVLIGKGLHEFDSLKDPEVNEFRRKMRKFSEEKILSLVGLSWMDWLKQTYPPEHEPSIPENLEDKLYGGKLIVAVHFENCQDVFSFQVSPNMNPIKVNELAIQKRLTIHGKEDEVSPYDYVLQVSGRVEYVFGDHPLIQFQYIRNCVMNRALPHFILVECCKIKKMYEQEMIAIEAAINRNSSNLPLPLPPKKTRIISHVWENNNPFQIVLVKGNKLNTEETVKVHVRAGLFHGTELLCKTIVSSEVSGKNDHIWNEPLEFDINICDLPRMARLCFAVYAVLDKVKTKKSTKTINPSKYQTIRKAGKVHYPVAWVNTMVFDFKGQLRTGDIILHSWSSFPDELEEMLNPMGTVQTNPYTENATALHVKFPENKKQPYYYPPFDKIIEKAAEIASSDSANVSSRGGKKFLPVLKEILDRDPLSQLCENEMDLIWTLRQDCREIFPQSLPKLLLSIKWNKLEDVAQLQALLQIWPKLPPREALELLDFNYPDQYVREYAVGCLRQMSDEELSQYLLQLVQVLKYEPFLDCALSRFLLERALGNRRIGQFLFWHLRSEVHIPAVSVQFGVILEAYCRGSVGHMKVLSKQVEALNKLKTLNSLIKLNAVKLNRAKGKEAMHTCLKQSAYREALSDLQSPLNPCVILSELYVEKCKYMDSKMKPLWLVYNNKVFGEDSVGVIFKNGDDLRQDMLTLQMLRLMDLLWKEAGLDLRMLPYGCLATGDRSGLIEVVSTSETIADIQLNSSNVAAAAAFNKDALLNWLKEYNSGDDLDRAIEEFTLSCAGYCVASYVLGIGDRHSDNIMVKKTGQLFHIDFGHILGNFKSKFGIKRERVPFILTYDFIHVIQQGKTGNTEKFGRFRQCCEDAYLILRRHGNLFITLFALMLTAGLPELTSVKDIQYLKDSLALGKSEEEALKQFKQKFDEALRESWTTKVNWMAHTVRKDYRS

Row | IC50 [µM] | Compound
1 | 5.86 | Cc1nnc(-c2nc(-c3cc(S(=O)(=O)N[C@H]4CC[C@H](O)CC4)ccc3C)cnc2N)o1 [Example 1, Trans-3-[5-Amino-6-(5-methyl-[1,3,4]oxadiazol-2-yl)-pyrazin-2-yl]-N-(4-hydroxy-cyclohexyl)-4-methyl-benzenesulfonamide]
2 | 7.6 | Cc1noc(-c2nc(-c3cc(S(=O)(=O)N[C@H]4CC[C@H](O)CC4)ccc3C)cnc2N)n1 [Example 2, Trans-3-[5-Amino-6-(3-methyl-[1,2,4]oxadiazol-5-yl)-pyrazin-2-yl]-N-(4-hydroxy-cyclohexyl)-4-methyl-benzenesulfonamide]

— patent US10004732B2 (Novartis AG, priority 2014, dated 2018)
